We go through seven compounds from patent US9206173B2, “Heterocyclic compounds for the treatment of stress-related conditions” (OTSUKA PHARMACEUTICAL CO., LTD., priority 2009, dated 2015).

The chains behind the UniProt entries cited, without tags or fusion partners. Where a name states a change or a piece, a line headed by the entry shows the natural chain unless it says otherwise.
UniProt P49683: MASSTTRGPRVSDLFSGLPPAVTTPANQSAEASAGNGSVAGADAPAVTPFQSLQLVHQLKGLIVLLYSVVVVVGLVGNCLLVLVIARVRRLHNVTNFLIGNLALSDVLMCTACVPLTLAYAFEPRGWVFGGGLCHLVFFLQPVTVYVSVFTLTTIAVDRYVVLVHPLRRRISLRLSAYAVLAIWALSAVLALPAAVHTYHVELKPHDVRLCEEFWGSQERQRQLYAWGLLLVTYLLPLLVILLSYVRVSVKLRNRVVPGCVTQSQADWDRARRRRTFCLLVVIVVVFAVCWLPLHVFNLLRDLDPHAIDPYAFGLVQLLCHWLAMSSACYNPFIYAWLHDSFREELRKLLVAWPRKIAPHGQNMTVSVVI

Broadly, the Ki is a measure of affinity in units of concentration, obtained from inhibition or displacement. Read a high Ki as lower affinity. As usually defined, the IC50 is the midpoint of a concentration-inhibition curve.

For assay [1], the target named is T1, human GPR10 (Homo sapiens (Human), UniProt P49683). Nature of the assay: Inhibitory activity on binding of [3H]-PrRP to GPR10 (HEK 293 cell membrane fraction). The following applies: [3H]-PrRP 1 nM, human GPR10-expressing HEK 293 cell membrane fraction; Ki from IC50 by Cheng-Prussoff formula. How it is done: Inhibitory Activity on Binding of [^3H]-PrRP to GPR10
Human GPR10 receptor expressing human embryonic kidney cells, HEK 293 cells, were cultured in Dulbecco's Modified Eagle's medium supplemented with 10% fetal bovine serum and 1% penicilline-streptmycin at 37° C., in 5% carbon dioxide gas conditions. The medium was removed and the cells were recovered in a phosphate buffer to prepare a cell suspension. The cell suspension was homogenated on ice by an ultrasonic cell homogenizer (Microson™ type XL200) and centrifuged at 40,000 g for 10 minutes at 4° C. After the supernatant was discarded, Buffer A (20 mM HEPES, 10 mM EDTA, 1 μl/ml protease inhibiting cocktail, pH 7.4) was added to the pellet. The pellet was suspended by the ultrasonic cell homogenizer, then the suspension was centrifuged at 40,000 g, for 10 minutes at 4° C. After this operation was repeated once again, the supernatant was discarded, Buffer B (20 mM HEPES, 0.1 mM EDTA, pH 7.4) was added to the pellet, and the pellet was suspended by the ultrasonic homogenizer. This was stored at a freezer of −80° C. as a cell membrane fraction until use in a binding test.
To each well of a 96-well plate, 150 μl of assay buffer (20 mM HEPES, 10 mM EDTA, 1 μl/ml protease inhibiting agent cocktail, pH 7.4), 20 μl of cell membrane fraction, 10 μl of test compound and [^3H]-PrRP (final concentration 1 nM) were added and incubated at room temperature for 90 minutes. After completion of the reaction, using a cell harvester, the cell-membrane fraction sample product was filtered under aspiration by a glass fiber filter plate (Unifilter; GF/B) previously treated with 0.5% polyethylene imine. The filter was washed with a 50 mM Tris hydrochloric acid buffer (pH 7.4) three times. After the filter was dried in a dryer (50° C.) for about 3 hours, 40 μl of liquid scintillation cocktail (MicroScint-O) was added to each well and radio activity was measured by a scintillation counter (Packard Topcount). The radio activity in the presence of an excessive amount of non-labeled PrRP (final concentration: 100 nM) was regarded as non-specific binding.
The binding inhibition rate was calculated based on calculating formula: 100−(radio activity when a compound is added−radio activity of non-specific binding)÷(radio activity when a solvent is added−radio activity of non-specific binding)×100.
An IC50 value was calculated based on the concentration dependent reaction using a non-linear analysis program and a Ki value was calculated using Cheng-Prussoff formula.

Assay [2] has as its target T1, human GPR10. Nature of the assay: Antagonistic activity on PrRP-induced intracellular calcium mobilization in human GPR10-expressing HEK293 cells. In kind it is cell-based. The following applies: PrRP 1 nM-induced intracellular calcium mobilization, Fluo-8. How it is done:
Pharmacological Test 2 Antagonistic Activity on GPR10 Using Human GPR10-Expressing HEK293 Cells.
Antagonistic activity of test compounds on PrRP-induced intracellular calcium mobilization was evaluated using GPR10-expressing HEK293 cells.
HEK293 cells expressing human GPR10 were maintained in Dulbecco's Modified Eagles' medium supplemented with 10% fetal bovine serum, 1% penicillin-streptomycin and 20 mM HEPES at 37° C. in a 5% CO2 incubator. GPR10-expressing HEK293 cells were placed in poly-D-lysine coated 96-well culture plates and cultured for 18-24 hr before the test at a density of 3×10^4 cells/well. […] The cells were incubated with test compounds for 15 min at room temperature, and then PrRP (the final concentration, 1 nM) was added into the medium. The changes in intracellular calcium-dependent fluorescence were monitored using a fluorescence imaging plate reader (FDSS3000, Hamamatsu Photonics K.K.). Fluo-8 fluorescence was measured with excitation at 490 nm and emission at 520 nm. The calcium-dependent fluorescence intensity was calculated by subtracting basal intensity (average intensity for 30 sec before agonist stimulation) from peak intensity for 60 sec after PrRP-stimulation, and then IC50 values were determined by nonlinear curve-fitting program, GraphPad Prism 5.

For `COn1c(N[C@@H](C)c2ccc(C(F)(F)F)cc2)nc2c(c1=O)CN(C(=O)c1ccc(Cl)c(C)c1)CC2` [Example 2396, 6-(4-chloro-3-methylbenzoyl)-3-methoxy-2-[(S)-1-(4-trifluoromethylphenyl)ethylamino]-5,6,7,8-tetrahydro-3H-pyrido[4,3-d]pyrimidin-4-one], the Ki in assay [1] stood at 20 nM. Moreover, the IC50 in assay [2] was 2220 nM.

`COc1cc(Cl)ccc1C(=O)N1CCc2nc(N[C@@H](C)c3ccc(C(F)(F)F)cc3)n(OC)c(=O)c2C1` [Example 2414, 6-(4-chloro-2-methoxybenzoyl)-3-methoxy-2-[(S)-1-(4-trifluoromethylphenyl)ethylamino]-5,6,7,8-tetrahydro-3H-pyrido[4,3-d]pyrimidin-4-one] had a Ki in assay [1] of 18 nM.

For `COn1c(N[C@@H](C)c2ccc(C(F)(F)F)cc2)nc2c(c1=O)CN(C(=O)c1ccc(C#N)cc1)CC2` [Example 2386, 4-{3-methoxy-4-oxo-2-[(S)-1-(4-trifluoromethylphenyl)ethylamino]-3,5,7,8-tetrahydro-4H-pyrido[4,3-d]pyrimidine-6-carbonyl}benzonitrile], the Ki in assay [1] was found to be 2 nM. Further, in assay [2], the half-inhibitory concentration (IC50) amounted to 140 nM.

For `CCOc1ccc(C(=O)N2CCc3nc(N[C@@H](C)c4ccc(C(F)(F)F)cc4)n(OC)c(=O)c3C2)cc1` [Example 2451, 6-(4-ethoxybenzoyl)-3-methoxy-2-[(S)-1-(4-trifluoromethylphenyl)ethylamino]-5,6,7,8-tetrahydro-3H-pyrido[4,3-d]pyrimidin-4-one], the affinity in assay [1], expressed as Ki, was 9 nM. Further, in assay [2], the IC50 is 1280 nM.

With `COn1c(N[C@@H](C)c2ccc(C(F)(F)F)cc2)nc2c(c1=O)CN(C(=O)c1cnc3ccccc3c1)CC2` [Example 2418, 3-methoxy-6-(quinoline-3-carbonyl)-2-[(S)-1-(4-trifluoromethylphenyl)ethylamino]-5,6,7,8-tetrahydro-3H-pyrido[4,3-d]pyrimidin-4-one], the inhibition constant (Ki) in assay [1] came to 8 nM. Further, the IC50 in assay [2] was 286 nM.

For `COn1c(N[C@@H](C)c2ccc(C(F)(F)F)cc2)nc2c(c1=O)CN(C(=O)c1cc3cc(Cl)ccc3o1)CC2` [Example 2403, 6-(5-chlorobenzofuran-2-carbonyl)-3-methoxy-2-[(S)-1-(4-trifluoromethylphenyl)ethylamino]-5,6,7,8-tetrahydro-3H-pyrido[4,3-d]pyrimidin-4-one], the affinity in assay [1], expressed as Ki, was 12 nM. Moreover, the IC50 in assay [2] worked out at 824 nM.

In turn, `COn1c(N[C@@H](C)c2ccc(C(F)(F)F)cc2)nc2c(c1=O)CN(C(=O)c1ccc3c(c1)CCC(=O)N3C)CC2` [Example 2461, 3-methoxy-6-(1-methyl-2-oxo-1,2,3,4-tetrahydro-quinoline-6-carbonyl)-2-[(S)-1-(4-trifluoromethylphenyl)ethylamino]-5,6,7,8-tetrahydro-3H-pyrido[4,3-d]pyrimidin-4-one] registered a Ki in assay [1] of 16 nM.
